Laboratory results from ChEMBL document CHEMBL1141517, “Separate synthesis and evaluation of glucitol bis-phosphate and mannitol bis-phosphate, as competitive inhibitors of fructose bis-phosphate aldolases” (Bioorg Med Chem Lett, 2008).

Tests used:
Oryctolagus cuniculus = species on record: Oryctolagus cuniculus; conditions: Muscle tissue

## O=C(COP(=O)(O)O)[C@H](O)[C@H](O)[C@@H](O)COP(=O)(O)O
Helicobacter pylori
  Km: 20 µM
Oryctolagus cuniculus
  Km: 20 µM
Saccharomyces cerevisiae
  Km: 200 µM
